Experimental data reported in ChEMBL document CHEMBL1127336, “P1 aspartate-based peptide alpha-((2,6-dichlorobenzoyl)oxy)methyl ketones as potent time-dependent inhibitors of interleukin-1 beta-converting enzyme” (J Med Chem, 1994).

Biological target: T1, Caspase-1 (Homo sapiens) (UniProt P29466)
T1 sequence (whole entry): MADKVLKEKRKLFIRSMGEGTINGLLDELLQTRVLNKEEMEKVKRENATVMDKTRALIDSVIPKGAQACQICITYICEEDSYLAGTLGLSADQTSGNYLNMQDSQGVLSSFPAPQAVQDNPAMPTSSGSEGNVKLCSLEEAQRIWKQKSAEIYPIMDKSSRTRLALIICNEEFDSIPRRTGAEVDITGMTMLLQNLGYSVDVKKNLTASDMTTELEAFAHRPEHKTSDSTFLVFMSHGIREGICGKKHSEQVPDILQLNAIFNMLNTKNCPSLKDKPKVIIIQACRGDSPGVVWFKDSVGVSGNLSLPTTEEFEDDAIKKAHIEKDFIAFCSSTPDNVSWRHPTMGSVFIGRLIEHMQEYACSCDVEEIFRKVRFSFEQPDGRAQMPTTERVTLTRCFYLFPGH
Assay: Compound was evaluated for the ability to inhibit Interleukin-1-beta-converting enzyme (ICE) purified from THP-1 cells

## CC(C)[C@H](NC(=O)OCc1ccccc1)C(=O)N[C@@H](C)C(=O)N[C@@H](CC(=O)O)C(=O)COC(=O)c1c(Cl)cccc1Cl
  k obs / 1: 407000 M⁻¹ s⁻¹
